{
  "source": "patent US20030073731A1",
  "about": "“Compositions and methods of the use thereof achiral analogues of CC-1065 and the duocarmycins” (priority 2000, published 2003)",
  "test_system": "NCI-H332M",
  "experiment": "NCI in-vitro cytotoxicity screen, Non-Small Cell Lung Cancer panel",
  "details": "read-out: LC50; NCI-H32M",
  "data": [
    {"smiles": "COC(=O)c1[nH]c2c(O)cc(NC(=O)c3cc4cc(OC)c(OC)c(OC)c4[nH]3)c(CCCl)c2c1C(=O)OC", "note": "[Compound 22, Dimethyl 4-(2-chloroethyl)-7-hydroxy-5-(5,6,7-trimethoxyindole-2-carboxamido)indole-2,3-dicarboxylate]", "values": [
      {"measurement": "CC50", "value": "< 50", "unit": "µM"}
    ]}
  ]
}
